The values below come from BindingDB's records for doi:10.1016/j.bmc.2013.02.056 (Ludwig-Maximilians-University Munich, 2013).

The assay concerns the target T1, Sodium- and chloride-dependent GABA transporter 3 (Mus musculus, UniProt P31650).
T1 sequence (P31650 whole entry): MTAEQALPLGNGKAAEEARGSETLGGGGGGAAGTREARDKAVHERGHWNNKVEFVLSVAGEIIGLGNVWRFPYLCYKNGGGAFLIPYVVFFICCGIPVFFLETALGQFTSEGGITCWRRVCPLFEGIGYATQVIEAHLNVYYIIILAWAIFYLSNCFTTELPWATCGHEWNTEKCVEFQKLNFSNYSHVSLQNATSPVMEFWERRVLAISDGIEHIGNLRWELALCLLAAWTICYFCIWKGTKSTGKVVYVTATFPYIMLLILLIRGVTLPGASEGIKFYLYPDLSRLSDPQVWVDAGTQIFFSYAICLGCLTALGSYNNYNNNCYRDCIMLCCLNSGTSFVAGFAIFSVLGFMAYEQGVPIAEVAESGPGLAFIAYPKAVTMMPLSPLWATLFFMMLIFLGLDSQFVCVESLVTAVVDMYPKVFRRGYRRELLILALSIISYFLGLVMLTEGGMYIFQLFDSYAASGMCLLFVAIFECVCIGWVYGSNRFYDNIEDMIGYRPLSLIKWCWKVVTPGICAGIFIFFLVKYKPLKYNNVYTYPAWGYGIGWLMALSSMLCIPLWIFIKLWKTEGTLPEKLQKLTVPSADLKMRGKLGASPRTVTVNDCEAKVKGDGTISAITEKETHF
The assay can be described thus: Inhibition of mouse GAT3 expressed in HEK cells assessed as inhibition of [3H]-GABA uptake after 25 mins by liquid scintillation counting analysis.

One may read the IC50 as the concentration at which inhibition is half-maximal.

On to `NCCCC(=O)O` [4-amino-n-[2,3-3H]butyric acid], for which the IC50 was 11.5 µM.
